Experimental data: PubChem BioAssay AID2303 (GlaxoSmithKline (GSK), 2010)
The list shows a part of the results, in another mix than the full data. Calls of active or inactive are those of the source.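 Rule for the calls: active = inhibition above 50%; inactive = the rest.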

Assay: HepG2 cytotoxicity, primary screen, cytotoxicity control for P. falciparum antimalarial project, cell-based, ATP luminescence (AID 2303);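 note: 0% = DMSO wells and 100% = digitonin-killed cells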
Conditions: HepG2 viability, 24-48 h, at 10 µM, active compounds read high

| Structure (SMILES) | inhibition |
| --- | --- |
| CCN1CCCC(OC(=O)C(O)(c2ccc3c(c2)OCO3)c2ccc3c(c2)OCO3)C1 (configuration not stated) | inactive: 3% |
| CCN1CCCC1COC(=O)C(O)(c1ccc2c(c1)OCO2)c1ccc2c(c1)OCO2 (configuration not stated) | inactive: 6% |
